PubChem BioAssay AID588405 (Sanford-Burnham Center for Chemical Genomics, 2011)
The list shows a part of the results, in another mix than the full data. The source made the active and inactive calls.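 Rule for the calls: active = inhibition of at least 50% at 20 µM; inactive = the rest.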

Assay: Peg3 promoter-driven luciferase inhibitors, primary screen, cell-based, HeLa, luciferase luminescence (AID 588405)
Conditions: HeLa PEG-Prom luciferase reporter, overnight, at 20 µM, stronger effect = higher value

Question: Which inhibition does the source give for `CCOP(C)(=S)SCC(=O)NC(C)(CC)C(=O)O` (stereo unspecified) here?
Answer: inactive: 3.23%
